Literature values as cited in paper PMC7529705.

How the values were obtained:
[1] = molecular target: histone H3R2me2s peptide (Homo sapiens) (UniProt P68431); conditions: cited from earlier work
[2] = molecular target: histone H3R2me1 peptide (Homo sapiens) (UniProt P68431); conditions: cited from earlier work

Substance: WDR5 (from UniProt P61964)
- pKd [1]: 7.00
- pKd [2]: < 3.30

pKd: −log10 of the molar value.
